Molecular target: human D3 expressed in HEK cells (Homo sapiens, UniProt P35462)
Assay: D3 receptor radioligand filtration binding assay
Details: Ki for D3 receptors/Ki for D2 receptors as printed; fold selectivity for D3R

Protein sequences, listed by entry. Tags and fused reporters are not part of them.
UniProt P35462, whole entry: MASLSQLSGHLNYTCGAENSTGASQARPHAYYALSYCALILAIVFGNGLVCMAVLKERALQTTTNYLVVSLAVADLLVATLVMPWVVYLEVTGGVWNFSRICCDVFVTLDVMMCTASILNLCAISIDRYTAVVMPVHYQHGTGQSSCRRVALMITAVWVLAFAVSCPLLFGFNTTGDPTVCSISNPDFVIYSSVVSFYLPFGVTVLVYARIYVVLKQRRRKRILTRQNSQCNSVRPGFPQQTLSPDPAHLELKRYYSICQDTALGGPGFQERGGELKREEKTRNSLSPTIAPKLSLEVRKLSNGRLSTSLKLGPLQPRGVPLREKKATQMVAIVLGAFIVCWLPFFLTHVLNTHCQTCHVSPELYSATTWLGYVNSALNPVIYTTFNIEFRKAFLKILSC

- D3R/D2R Ratio (selectivity): over 900
Compound: COc1ccccc1N1CCC2(CCN(CCCSc3nnc(-c4ccccc4)n3C)CC2)CC1 [Compound 15a]
